# Assay: Partition coefficients between octanol and water by UV/visible absorption
substance,measurement,setting,value
5-chloro-2-n-octyl-isothiazolin-3-one,P (partition coefficient between octanol and water),"25° C., UV/visible absorption",> 2.75
same,Log P,not marked # (not calculated),> 2.75

# From US20010014345A1, “MATERIAL, METHOD AND APPARATUS FOR INHIBITING BACTERIAL GROWTH IN AN AQUEOUS MEDIUM” (priority 1995, published 2001)
